1 compound from PMC10035370, “Targeting Tumor Angiogenesis with the Selective VEGFR-3 Inhibitor EVT801 in Combination with Cancer Immunotherapy” (Cancer Research Communications, 2022) can be followed below.

Protein sequences, listed by entry. Tags and fused reporters are not part of them. Residues count along the entry.
UniProt P35916, 25-1363 limits assumed: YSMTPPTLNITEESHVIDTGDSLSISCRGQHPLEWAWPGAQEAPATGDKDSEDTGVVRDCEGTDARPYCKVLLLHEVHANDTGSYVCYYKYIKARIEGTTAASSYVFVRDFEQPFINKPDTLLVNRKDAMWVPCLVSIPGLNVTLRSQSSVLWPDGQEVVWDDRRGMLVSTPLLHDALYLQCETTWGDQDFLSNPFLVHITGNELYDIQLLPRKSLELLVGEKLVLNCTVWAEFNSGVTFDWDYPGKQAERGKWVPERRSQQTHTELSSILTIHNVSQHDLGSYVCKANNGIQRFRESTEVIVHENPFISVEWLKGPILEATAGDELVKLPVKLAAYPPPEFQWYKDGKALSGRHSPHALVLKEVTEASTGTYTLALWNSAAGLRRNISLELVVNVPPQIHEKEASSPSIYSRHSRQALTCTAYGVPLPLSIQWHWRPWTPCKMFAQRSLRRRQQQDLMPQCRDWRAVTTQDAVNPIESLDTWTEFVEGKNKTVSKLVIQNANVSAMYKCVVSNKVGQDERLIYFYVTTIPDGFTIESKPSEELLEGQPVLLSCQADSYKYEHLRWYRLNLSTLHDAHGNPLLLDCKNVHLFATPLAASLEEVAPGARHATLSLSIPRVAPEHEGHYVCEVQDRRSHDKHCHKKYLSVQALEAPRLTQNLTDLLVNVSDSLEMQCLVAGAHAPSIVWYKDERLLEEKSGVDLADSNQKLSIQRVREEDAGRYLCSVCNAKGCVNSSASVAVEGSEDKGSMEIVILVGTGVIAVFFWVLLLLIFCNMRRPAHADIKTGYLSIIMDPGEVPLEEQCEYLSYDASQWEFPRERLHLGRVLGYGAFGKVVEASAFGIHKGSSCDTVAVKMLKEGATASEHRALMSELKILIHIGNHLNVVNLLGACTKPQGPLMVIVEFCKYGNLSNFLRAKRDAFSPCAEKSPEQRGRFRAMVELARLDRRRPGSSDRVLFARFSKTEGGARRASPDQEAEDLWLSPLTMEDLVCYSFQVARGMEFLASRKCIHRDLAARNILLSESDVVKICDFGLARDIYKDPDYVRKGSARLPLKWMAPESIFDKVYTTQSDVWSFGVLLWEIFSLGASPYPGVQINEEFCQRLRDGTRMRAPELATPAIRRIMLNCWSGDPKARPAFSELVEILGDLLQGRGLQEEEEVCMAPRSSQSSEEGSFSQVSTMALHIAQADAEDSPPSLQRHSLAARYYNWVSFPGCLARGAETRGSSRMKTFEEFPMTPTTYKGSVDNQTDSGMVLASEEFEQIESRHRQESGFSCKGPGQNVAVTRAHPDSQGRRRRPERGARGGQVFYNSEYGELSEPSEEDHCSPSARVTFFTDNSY
UniProt P35916, 845-1173 limits assumed: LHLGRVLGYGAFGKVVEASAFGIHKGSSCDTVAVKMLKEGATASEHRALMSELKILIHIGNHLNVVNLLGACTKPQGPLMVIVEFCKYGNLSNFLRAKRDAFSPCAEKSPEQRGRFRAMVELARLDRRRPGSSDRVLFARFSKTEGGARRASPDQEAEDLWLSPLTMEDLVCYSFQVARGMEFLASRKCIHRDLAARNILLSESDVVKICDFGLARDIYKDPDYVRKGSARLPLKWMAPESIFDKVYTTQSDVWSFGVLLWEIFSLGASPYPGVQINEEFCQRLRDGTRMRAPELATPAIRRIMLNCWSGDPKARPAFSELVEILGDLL
UniProt P35968, 20-1356 limits assumed: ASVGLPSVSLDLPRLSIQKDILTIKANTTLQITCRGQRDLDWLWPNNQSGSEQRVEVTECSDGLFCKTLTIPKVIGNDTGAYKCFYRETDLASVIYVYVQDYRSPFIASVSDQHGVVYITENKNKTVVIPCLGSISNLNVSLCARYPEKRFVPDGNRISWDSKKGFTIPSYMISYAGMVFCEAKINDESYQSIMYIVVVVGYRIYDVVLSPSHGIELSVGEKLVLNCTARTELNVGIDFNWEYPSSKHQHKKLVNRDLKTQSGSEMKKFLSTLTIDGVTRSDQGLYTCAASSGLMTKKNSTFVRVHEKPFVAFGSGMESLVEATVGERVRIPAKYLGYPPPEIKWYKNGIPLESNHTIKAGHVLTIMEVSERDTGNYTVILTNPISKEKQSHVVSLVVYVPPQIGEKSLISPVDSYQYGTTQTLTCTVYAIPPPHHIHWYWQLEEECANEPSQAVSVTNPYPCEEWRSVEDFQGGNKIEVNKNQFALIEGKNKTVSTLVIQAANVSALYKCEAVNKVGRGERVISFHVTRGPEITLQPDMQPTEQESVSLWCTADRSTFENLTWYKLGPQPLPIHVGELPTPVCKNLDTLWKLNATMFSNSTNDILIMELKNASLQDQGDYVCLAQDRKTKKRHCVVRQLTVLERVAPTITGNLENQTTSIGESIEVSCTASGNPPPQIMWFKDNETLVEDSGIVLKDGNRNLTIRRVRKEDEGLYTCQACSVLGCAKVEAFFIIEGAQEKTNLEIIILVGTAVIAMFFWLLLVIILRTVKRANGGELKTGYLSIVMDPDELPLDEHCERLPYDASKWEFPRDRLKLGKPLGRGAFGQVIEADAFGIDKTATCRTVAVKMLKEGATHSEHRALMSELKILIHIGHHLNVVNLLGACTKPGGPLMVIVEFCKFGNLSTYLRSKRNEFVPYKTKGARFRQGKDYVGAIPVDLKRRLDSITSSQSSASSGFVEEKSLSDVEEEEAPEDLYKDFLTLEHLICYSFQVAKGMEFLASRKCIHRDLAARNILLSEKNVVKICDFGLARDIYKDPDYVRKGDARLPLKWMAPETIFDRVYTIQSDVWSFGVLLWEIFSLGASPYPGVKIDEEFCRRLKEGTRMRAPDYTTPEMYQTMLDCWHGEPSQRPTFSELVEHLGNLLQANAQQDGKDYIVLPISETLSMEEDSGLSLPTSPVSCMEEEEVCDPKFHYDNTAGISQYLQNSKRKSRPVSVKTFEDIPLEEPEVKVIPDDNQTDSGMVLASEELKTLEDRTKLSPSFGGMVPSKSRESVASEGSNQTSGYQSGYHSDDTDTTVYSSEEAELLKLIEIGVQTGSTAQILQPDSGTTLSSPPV
UniProt P35968, 834-1162 limits assumed: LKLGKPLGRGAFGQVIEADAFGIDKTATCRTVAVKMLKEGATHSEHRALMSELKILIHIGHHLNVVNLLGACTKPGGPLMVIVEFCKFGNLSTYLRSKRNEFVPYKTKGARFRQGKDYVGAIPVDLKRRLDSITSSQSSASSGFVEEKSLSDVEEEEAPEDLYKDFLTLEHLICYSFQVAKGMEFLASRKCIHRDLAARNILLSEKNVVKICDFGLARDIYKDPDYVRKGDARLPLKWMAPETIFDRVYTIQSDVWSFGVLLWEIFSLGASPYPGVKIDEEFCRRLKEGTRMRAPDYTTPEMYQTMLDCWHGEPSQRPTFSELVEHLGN
UniProt P17948, 27-1338 limits assumed: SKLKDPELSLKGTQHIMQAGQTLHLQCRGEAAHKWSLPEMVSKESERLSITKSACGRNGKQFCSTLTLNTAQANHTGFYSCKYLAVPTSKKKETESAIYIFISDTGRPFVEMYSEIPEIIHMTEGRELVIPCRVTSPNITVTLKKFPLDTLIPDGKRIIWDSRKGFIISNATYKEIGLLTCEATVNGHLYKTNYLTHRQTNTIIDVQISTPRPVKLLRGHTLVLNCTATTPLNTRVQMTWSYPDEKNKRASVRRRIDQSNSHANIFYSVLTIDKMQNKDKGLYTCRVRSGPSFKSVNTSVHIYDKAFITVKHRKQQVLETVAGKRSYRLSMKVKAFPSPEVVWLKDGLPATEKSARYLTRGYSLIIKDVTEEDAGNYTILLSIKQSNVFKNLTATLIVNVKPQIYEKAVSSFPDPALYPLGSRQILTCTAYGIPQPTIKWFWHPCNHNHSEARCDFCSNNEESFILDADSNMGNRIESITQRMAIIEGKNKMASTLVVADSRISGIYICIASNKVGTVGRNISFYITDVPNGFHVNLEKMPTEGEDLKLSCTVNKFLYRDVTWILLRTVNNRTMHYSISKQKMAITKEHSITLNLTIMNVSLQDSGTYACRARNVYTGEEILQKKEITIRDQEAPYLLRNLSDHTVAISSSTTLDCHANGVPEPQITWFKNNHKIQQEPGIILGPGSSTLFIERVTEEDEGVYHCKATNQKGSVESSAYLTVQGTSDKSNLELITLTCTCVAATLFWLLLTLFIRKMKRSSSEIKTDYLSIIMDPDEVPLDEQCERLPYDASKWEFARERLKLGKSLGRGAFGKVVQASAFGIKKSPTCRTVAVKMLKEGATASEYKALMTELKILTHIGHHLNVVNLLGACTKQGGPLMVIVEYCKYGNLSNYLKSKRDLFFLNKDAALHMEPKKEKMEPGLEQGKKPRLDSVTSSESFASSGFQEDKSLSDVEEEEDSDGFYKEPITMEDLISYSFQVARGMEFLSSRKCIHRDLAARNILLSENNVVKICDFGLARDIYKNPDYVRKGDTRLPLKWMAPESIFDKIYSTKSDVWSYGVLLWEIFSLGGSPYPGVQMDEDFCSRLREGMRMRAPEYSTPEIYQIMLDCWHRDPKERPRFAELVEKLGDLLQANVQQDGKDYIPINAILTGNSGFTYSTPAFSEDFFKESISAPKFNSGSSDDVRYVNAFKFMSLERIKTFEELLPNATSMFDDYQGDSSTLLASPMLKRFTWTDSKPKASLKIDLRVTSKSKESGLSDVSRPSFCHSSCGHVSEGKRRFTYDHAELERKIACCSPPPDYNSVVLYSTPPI
UniProt P17948, 827-1158 limits assumed: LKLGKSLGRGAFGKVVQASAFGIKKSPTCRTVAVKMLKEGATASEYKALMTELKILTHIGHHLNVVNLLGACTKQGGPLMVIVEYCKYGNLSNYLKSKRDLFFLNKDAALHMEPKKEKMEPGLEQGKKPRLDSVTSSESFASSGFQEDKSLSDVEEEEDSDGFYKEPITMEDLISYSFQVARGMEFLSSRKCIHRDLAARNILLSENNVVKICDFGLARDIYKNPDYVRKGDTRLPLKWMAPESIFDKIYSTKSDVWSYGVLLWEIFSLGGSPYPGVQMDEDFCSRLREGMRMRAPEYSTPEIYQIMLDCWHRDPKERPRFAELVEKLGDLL
UniProt A0A2K5X6S1, 25-1409 limits assumed: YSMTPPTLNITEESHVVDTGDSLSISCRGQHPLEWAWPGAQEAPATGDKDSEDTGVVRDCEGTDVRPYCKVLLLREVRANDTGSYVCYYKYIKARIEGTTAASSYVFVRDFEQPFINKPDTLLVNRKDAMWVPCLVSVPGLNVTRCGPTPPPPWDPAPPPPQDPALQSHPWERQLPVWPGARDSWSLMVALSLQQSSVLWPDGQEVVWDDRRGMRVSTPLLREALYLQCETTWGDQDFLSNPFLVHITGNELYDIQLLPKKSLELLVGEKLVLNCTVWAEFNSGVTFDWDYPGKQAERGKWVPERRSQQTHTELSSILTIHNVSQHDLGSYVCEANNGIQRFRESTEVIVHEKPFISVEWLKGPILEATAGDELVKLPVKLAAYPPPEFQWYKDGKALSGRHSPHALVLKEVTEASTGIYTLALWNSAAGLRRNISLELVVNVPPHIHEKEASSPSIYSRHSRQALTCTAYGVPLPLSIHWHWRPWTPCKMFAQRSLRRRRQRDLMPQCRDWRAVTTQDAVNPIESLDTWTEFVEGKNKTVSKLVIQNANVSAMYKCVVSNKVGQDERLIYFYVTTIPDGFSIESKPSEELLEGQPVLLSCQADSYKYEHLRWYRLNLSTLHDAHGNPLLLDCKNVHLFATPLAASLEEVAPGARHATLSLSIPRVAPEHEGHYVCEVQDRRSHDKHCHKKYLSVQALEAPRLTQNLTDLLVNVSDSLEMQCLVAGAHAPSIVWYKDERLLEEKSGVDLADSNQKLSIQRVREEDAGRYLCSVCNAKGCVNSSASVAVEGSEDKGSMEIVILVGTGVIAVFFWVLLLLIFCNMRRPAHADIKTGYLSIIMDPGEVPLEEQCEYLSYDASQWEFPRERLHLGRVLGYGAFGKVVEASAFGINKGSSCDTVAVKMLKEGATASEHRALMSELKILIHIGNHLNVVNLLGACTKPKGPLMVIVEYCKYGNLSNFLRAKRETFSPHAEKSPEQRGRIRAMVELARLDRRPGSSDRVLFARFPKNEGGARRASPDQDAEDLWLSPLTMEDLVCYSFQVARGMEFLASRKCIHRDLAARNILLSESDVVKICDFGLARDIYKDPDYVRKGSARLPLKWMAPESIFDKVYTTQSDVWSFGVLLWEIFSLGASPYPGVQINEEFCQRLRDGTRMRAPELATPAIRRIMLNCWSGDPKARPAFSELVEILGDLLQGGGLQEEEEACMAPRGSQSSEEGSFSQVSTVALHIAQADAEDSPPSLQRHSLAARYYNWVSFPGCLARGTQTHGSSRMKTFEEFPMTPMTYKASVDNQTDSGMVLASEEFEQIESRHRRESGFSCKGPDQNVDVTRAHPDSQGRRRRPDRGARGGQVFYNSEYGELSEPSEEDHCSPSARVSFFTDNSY

Data set [1] can be described thus: Pharmacokinetics in mice. The following applies: SCID mice with tumor. The procedure:
Plasma samples and tumor homogenates were mixed with the precipitant solution (acetonitrile containing internal standard). The supernatant (180 µL) was transferred in a 96-well plate and 5 µL were injected. EVT801 and its main metabolite were quantified by LC-MS/MS following standard conditions.
Quality control (QC) samples and calibration samples were prepared daily by spiking mouse plasma and tumor homogenates with working solutions prepared from independent weighing. The calibration curve was calculated from calibration levels at 1, 2.5, 5, 10, 25, 50, 100, 200, 500, 1000 and 2000 ng/mL. A variation of ± 20 % versus the nominal concentrations was used as criteria for qualification of samples; at least 75 % of all standards needed to be within this window, and at least 6 concentration values within tis window were used for quantification. The concentrations for QC samples were 5, 50, 150, 450 and 1500 ng/mL. At least 66 % of all QC samples, and at least 50 % of QC samples at a given concentration were within the ± 20 % window. Quadratic regressions were applied, not forced through the origin, and weighted by 1/x (with R^2 > 0.98). The lower limit of quantification for both compounds was set to 1 ng/mL for plasma and to 3 ng/g for tumor samples.

The target of data set [2] is VEGFR-3 (Rattus norvegicus, UniProt Q91ZT1). Nature of the data set: Cellular VEGFR-3 autophosphorylation assay, rat receptor. The settings on record: read-out: VEGFR-3 autophosphorylation, Cellular assay. The procedure: (§1) Transfection of HEK293T cells and Ba/F3 cells with VEGFR-1-Flag, VEGFR-2-Flag or VEGFR-3-Flag expression constructs was performed using Fugene-6 (Roche) as per manufacturer’s protocol. Briefly, Fugene-6 was pre-incubated with Opti-Mem (Gibco) before adding DNA. After 24 h, media was replaced with serum-free culture media containing 0.2 % BSA. On the next day, cells were incubated for 1 h in 1 mM orthovanadate, harvested, dissociated and distributed at 4 x 10^5 cells in 5 mL for HEK-VEGFR-1 and HEK-VEGFR-3, and 5 x 10^4 cells per 5 mL for HEK VEGFR-2 in the presence of EVT801 or SAR401849. After 30 min, the reaction was stopped by the addition of cold PBS supplemented with 1 mM orthovanadate. Cells were then lysed with 150 μl of RIPA buffer for 15 min at 4°C, then centrifuged for 10 min at 10,000 g. Supernatants (75 μl) were distributed in duplicate on 96 well plates that were precoated with the anti-flag, and left for 1 h at room temperature. After 3 washes, the anti-phosphotyrosine conjugated to the HRP was added and incubated for 1 h at room temperature. Wells were then washed 3 times with TBS buffer containing 0.5 % Tween-20 and 2 mM MgCl2. The reaction was stopped with 50 μL of 2 N H2SO4, and the signal was read with Envision at the wavelengths of 485 nm and 530 nm.

The target in data set [3] is T1, VEGFR-3 (Homo sapiens, UniProt P35916). Nature of the data set: Viability of Ba/F3 cells dependent on VEGFR-3. The following applies: read-out: IC50, VEGFR-3-dependent viability. As to the method:
(§2) Ba/F3 cells were transduced and selected to stably express fusion proteins consisting of constructs for IL-3 independent survival and either VEGFR-2 or VEGFR-3 kinase domains or without the kinase domain. Proliferation and survival of cell lines was dependent on expression of the transcript. Cells in logarithmic-phase growth were harvested and 5 x 10^3 cells were distributed into each well of a 384-well plate in 50 µL of medium. Then, 50 nL of EVT801, SAR401849 or their vehicle solvent were added to appropriate wells. After 48 h, viability was determined by addition of 10 µL CellTiterGlo reagent (Promega). Luminescence was determined as relative light units (RLU) in counts per second.

The target in data set [4] is T2, VEGFR2 (Homo sapiens, UniProt P35968). Description: Viability of Ba/F3 cells dependent on VEGFR-2. The settings on record: read-out: IC50, VEGFR-2-dependent viability. As to the method:
as §2

Data set [5] deals with T1, VEGFR-3. Nature of the data set: Biochemical kinase assay (in vitro assay), VEGFR-3. The following applies: read-out: VEGFR-3 autophosphorylation, In vitro assay. The procedure: (§3) Sigma protein kinase assay kits were used. 125 μL per well of Poly-Glu-Tyr (PGT) solution (250 μg/mL of PGT in PBS without Ca^2+, Mg^2+ and sodium bicarbonate) was added in a 96-well plate and overnight incubation was performed at 37 °C. The day after, coating solution was removed and wells were washed with 300 μL of PBS-Tween-20 0.05 %. The washing buffer was removed and wells were dried for 2 h at 37 °C. 90 μL of the kinase buffer was supplemented with ATP (30 μM for VEGFR-1 and VEGFR-3, and 15 μM for VEGFR-2), and the compound (EVT801 or SAR401849 at the indicated concentration or 1 % DMSO for the vehicle control). The phosphorylation reaction was initiated by the addition of 20 μL of kinase buffer without ATP supplemented with 100 ng of the tyrosine kinase (or without tyrosine kinase as control). Plates were incubated with gentle agitation at room temperature for 30 min. After 3 washes with 300 μL of washing buffer, 100 μL of phosphotyrosine specific monoclonal antibody conjugated to HRP (1:30,000) was added onto the phosphorylated PGT. Plates were incubated for 30 min at room temperature under gentle agitation. Then, 3 washes with 300 μL of washing buffer were performed. […] After 7 min at room temperature, the reaction was stopped by addition of 100 μL of […], and absorbance was determined with an Endvision spectrophotometer at 492 nm.

In data set [6] the target is T3, VEGFR1 (Homo sapiens, UniProt P17948). Nature of the data set: Cellular autophosphorylation assay, HEK293 cells transiently expressing VEGFR-1. The procedure: as §1
Data set [7] deals with LRRK2 (Homo sapiens, UniProt Q5S007). Nature of the data set: Internal kinase panel, LRRK2. The following applies: inhibition at 1 µM; 48 or 60 kinase panel. The procedure:
(§4) Recombinant human proteins from different vendors (Carna Bio, Millipore, Invitrogen) were suspended in phosphate buffer, pH 7.4 containing 1 mM DTT and pre-incubated with EVT801 or SAR401849 for 15 min. Then, substrate and ATP were added (final concentrations of 1.5 µM and equal to Km), the mixture incubated for 90 min at 28 °C. After incubation, 25 µL ADP-Glo reagent (Promega) was added to the reactions, and incubated at room temperature for 40 min. Then, 50 µL of kinase detection reagent was added and incubated for 40 min. Subsequently, the reaction was stopped with EDTA, and luminescence was recorded and IC50 values were determined.

Data set [8] deals with T2, VEGFR2. Nature of the data set: Biochemical kinase assay (in vitro assay), VEGFR-2. The settings on record: read-out: VEGFR-2 autophosphorylation, In vitro assay. As to the method: as §3
The target in data set [9] is T3, VEGFR1. Description: Biochemical kinase assay (in vitro assay), VEGFR-1. The settings on record: read-out: VEGFR-1 autophosphorylation, In vitro assay. The procedure: as §3
The target in data set [10] is T2, VEGFR2. Description: Internal kinase panel, VEGFR2. The settings on record: inhibition at 1 µM; 48 or 60 kinase panel. As to the method:
as §4

For data set [11], the target named is VEGFR-3 (Macaca fascicularis, UniProt A0A2K5X6S1). Description: Cellular VEGFR-3 autophosphorylation assay, monkey receptor. The settings on record: read-out: VEGFR-3 autophosphorylation, Cellular assay. Format: cell-based. As to the method:
as §1

The subject of data set [12] is 107 targets. Nature of the data set: CEREP selectivity panel.
Data set [13] has as its system Ion channels, 7 targets. Nature of the data set: Ion channels panel. The following applies: concentration of 1 µM.
In data set [14] the target is T3, VEGFR1. Description: Internal kinase panel, VEGFR1. The following applies: inhibition at 1 µM; 48 or 60 kinase panel. The procedure: as §4
Data set [15] has as its target T1, VEGFR-3. Nature of the data set: Cellular autophosphorylation assay, HEK293 cells transiently expressing VEGFR-3. The settings on record: read-out: VEGFR-3 autophosphorylation, Cellular assay. As to the method: as §1
Data set [16] has as its target VEGFR-3 (Mus musculus, UniProt P35917). Nature of the data set: Cellular VEGFR-3 autophosphorylation assay, mouse receptor. The settings on record: read-out: VEGFR-3 autophosphorylation, Cellular assay. As to the method: as §1
Data set [17] addresses T2, VEGFR2. Nature of the data set: Cellular autophosphorylation assay, HEK293 cells transiently expressing VEGFR-2. The following applies: read-out: VEGFR-2 autophosphorylation, Cellular assay. The procedure: as §1
In data set [18] the target is AuroraB (Homo sapiens, UniProt Q96GD4). Description: Internal kinase panel, AuroraB. The settings on record: inhibition at 1 µM; 48 or 60 kinase panel. As to the method: as §4
Data set [19] deals with VEGFR-3. Description: Cellular VEGFR-3 autophosphorylation assay, dog receptor. The following applies: read-out: VEGFR-3 autophosphorylation, Cellular assay. The procedure:
as §1

pIC50: −log10 of the molar value.

With `CCn1c(N)c(-c2ncc[nH]2)c(=O)c2ccc(C#C[C@@](C)(O)CO)nc21`, the T1/2 in plasma stood at 2.6 h in data set [1] (10 mg/kg for 2 weeks) and 1.8 h in data set [1] (30 mg/kg for 2 weeks). Besides, the pIC50 was 7.04 in data set [2]; 7.49 in data set [3]; 6.40 in data set [4]; 7.71 in [5]; 5.64 in data set [6] (read-out: VEGFR-1 autophosphorylation, Cellular assay, Human); 6.61 in data set [8]. The pIC50 in data set [9] was 6.08; in data set [11] it was 7.47; in data set [15], 7.49; in data set [16], 7.20; in data set [17], 6.68; in [19], 7.35. The “maximum inhibition of VEGFR-1” value in data set [6] (HEK293T cellular autophosphorylation assay) is given as “below 50%”. In addition, the “Selectivity, inhibition of LRRK2” value in data set [7] was determined as 54%. In data set [10], the “Selectivity, inhibition of VEGFR2” value stood at 90%. The “Selectivity, CEREP targets with > 80 % inhibition at 10 µM” value in [12] is listed as “A3 A2a A1 PDE3A ^b”. Moreover, the “Ion channels, effect” value in data set [13] is “No effect”. The “Selectivity, inhibition of VEGFR1” value in data set [14] is 61%. In addition, in data set [18], the “Selectivity, inhibition of AuroraB” value is 50%.
